Assay results from BindingDB's records for 1320121.

The chains behind the UniProt entries cited, without tags or fusion partners.
UniProt P41143, whole entry, looked up: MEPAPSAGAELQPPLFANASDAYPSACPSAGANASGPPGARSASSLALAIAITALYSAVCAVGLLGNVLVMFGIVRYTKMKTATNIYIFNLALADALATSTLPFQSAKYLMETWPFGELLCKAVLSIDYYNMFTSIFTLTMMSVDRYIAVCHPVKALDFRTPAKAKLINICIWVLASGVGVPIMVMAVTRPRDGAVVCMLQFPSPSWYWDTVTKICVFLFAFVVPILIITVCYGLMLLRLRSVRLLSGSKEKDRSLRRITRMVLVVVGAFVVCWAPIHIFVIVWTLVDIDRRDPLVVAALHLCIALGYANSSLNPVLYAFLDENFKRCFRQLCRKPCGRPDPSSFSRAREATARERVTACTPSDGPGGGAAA

Molecular target: Delta-type opioid receptor (Homo sapiens, UniProt P41143)
Experiment: ChEBML_146873

## C=C(CO[C@@H]1CC[C@@]2(O)[C@H]3Cc4ccc(O)c5c4[C@@]2(CCN3CC2CC2)[C@H]1O5)C(=O)OC
  IC50: 1.4 nM
